From patent US6673364B1, “Liposome having an exchangeable component” (The University of British Columbia, priority 1995, dated 2004)

Assay: 31P-NMR phase preference of equimolar DOPE:cholesterol mixtures with bilayer stabilizing component (BSC)
Type: physicochemical
Details: for bilayer stabilizing ability: BSC 5 mol %; for bilayer to HII transition temperature: BSC 5 mol % (1:1:0.05)
Experimental: Lipid components were mixed in 1-2 ml of benzene:methanol (95:5, v/v) and then lyophilized for a minimum of 5 hours at a pressure of <60 millitorr using a Virtis lyophilizer equipped with a liquid N2 trap. Multilamellar vesicles (MLVs) were prepared by hydrating the dry lipid mixtures in 150 mM NaCl, buffered with 10 mM Hepes-NaOH, pH 7.4 (Hepes-buffered saline, HBS). Mixtures were vortexed to assist hydration. To produce large unilamellar vesicles (LUVs), MLVs were first frozen in liquid nitrogen and then thawed at 30° C. five times. LUVs were produced by extrusion of the frozen and thawed MLVs ten times through 2 stacked polycarbonate filters of 100 nm pore size at 30° C. and pressures of 200-500 psi (Hope, et al., Biochim. Biophys. Acta, 812:55-65 (1985)).
^31P-NMR spectra were obtained using a temperature controlled Bruker MSL200 spectrometer operating at 81 MHz. Free induction decays were accumulated for 2000 transients using a 4 μs, 90° pulse, 1 sec. interpulse delay, 20 KHz sweep width and Waltz decoupling. A 50 Hz line broadening was applied to the data prior to Fourier transformation. Samples were allowed to equilibrate at the indicated temperature for 30 minutes prior to data accumulation. Lipid concentrations of 30-70 mM were used.

Substance	bilayer stabilizing ability	bilayer to HII transition temperature	bilayer to hexagonal (HII) phase transition (BSC 9 mol % (1:1:0.1), spectra 0-60° C.)	phase preference (31P-NMR) (BSC 20 mol % of phospholipid (1:1:0.25))
poly-(ethyleneglycol)5000 conjugated to DOPE [DOPE-PEG5000]	marked increase in bilayer stability	approximately 30 °C		
poly-(ethyleneglycol)2000 conjugated to DOPE [DOPE-PEG2000]	limited bilayer stabilizing ability	approximately 10 °C	40-50 °C	almost exclusively bilayer; also recorded: stabilized in the bilayer conformation

Entries after “also recorded” stand apart in the source; their conditions may differ.
